# Antibody variant affinities, Ab-14 heavy chain, assay B

Source: Li et al. 2023 (doi:10.1038/s41467-023-39022-2), MIT Lincoln Laboratory and A-Alpha Bio; data file from the FLAb repository.

Target peptide (SARS-CoV-2 spike, HR2 region): PDVDLGDISGINAS

The variants keep the light chain, the linker and the frameworks of Ab-14 (scFv order VH, three GGGGS repeats, VL).
VH: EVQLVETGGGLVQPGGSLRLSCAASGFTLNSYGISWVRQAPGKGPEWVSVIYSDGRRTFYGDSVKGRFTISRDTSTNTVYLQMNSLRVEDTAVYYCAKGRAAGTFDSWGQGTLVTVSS
VL: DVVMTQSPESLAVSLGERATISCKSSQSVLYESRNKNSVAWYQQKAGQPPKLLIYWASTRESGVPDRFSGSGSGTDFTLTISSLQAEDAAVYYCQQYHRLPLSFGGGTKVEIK

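This is the validation round: designs drawn from the data on random variants, tested in the same kind of assay. Several design methods are mixed in this list. The scFvs were displayed on barcoded MATa yeast, the peptide on MATalpha yeast. Pairs that bind mate more often; barcode pairs of the diploids are counted by sequencing. Read counts were normalised to the haploid input and turned into Kd by a linear fit to BCL2-family pairs of known affinity, for each replicate. There are six technical replicates.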

The parent's heavy chain CDRs are GFTLNSYGIS, VIYSDGRRTFYGDSVK, GRAAGTFDS; each variant's own CDRs replace them letter for letter. Variants here have at most six changes. Affinities are written as log10 Kd with Kd in nM; a lower number is a better binder. "ND" marks a missing value. The strain was present, yet no cells mated with the target were sequenced in that replicate, which points to weak or no binding. Nonspecific signal, from three strains lacking the peptide, appeared in 1% of pairings of all heavy chain designs, centred on 2.08 (5% of these signals below 0.84); values are not corrected for it.

With GFTLDSYRIS | VIYSDNRRTFYGDSVK | GRAAGTALS the result was ND, ND, ND, ND, ND, ND. For GFSLNNYGIS | VIYSDGRRTYYGDSVK | GRAAGTFDS, the assay gave 0.51, ND, ND, 0.11, 1.73, 1.16. For GFTLNQYGIS | VIYSDGRRTFYSMSVK | GKAAGFFDS, the assay gave ND, ND, ND, ND, ND, ND. For KFSLNSYGIS | VIYSDGRRTFYADSVK | GQAAGTFDS, the assay gave ND, ND, ND, ND, ND, ND. With GFELNSYGIS | VIYADGRRTFYADSVK | GRAAGTFDS the result was -0.20, -0.17, -0.27, -0.58, -0.69, -0.13. The variant GFTLNSYGIS | VIYSDGRRTFYGDSVK | GRAAGTKDS showed ND, ND, ND, ND, ND, ND. With GFELNSYGIS | VIYSDGKRTFYVDSVK | GRTAGTFDS the result was 1.14, 1.50, 2.54, 1.46, 1.71, 1.23. The variant GFTLDSYGIS | VIYSDGRRTFYGDSVK | GRASGTFDS gave ND, ND, 2.45, ND, ND, 2.33.

The variant GFTLNQYGIS | VIYSDGRRTFYIDSVK | GRAAGTFDS gave ND, 1.40, 1.47, 1.68, 1.36, 1.25. With GFNLNSYGIS | VIYSDGRRTFYGDSVK | GREAGTFDS the result was 0.44, -0.28, -0.12, 0.23, -0.25, -0.09; 0.19, 0.14, -0.05, -0.08, 0.19, 0.70. With GFTLNEYGIS | VIYSDGRRTFYGDSVK | GRAACTFIL the result was ND, ND, ND, ND, ND, ND. The variant GFDLNEYGIS | VIYSDGRRTFYTDSVK | GRSAGTFDS gave 0.86, 1.11, 1.13, 0.57, 1.47, 0.72. The variant GFSLNSYGIS | VIYSDGRRTFYGDSVK | GEAAGTFDA gave ND, ND, ND, 1.86, ND, ND. The variant GFELNSYGIS | VIYSDGRRTFYGDHVK | GRTAGTFDS gave 0.47, ND, 0.65, 2.61, 1.64, 2.64. The variant GFTLNSYGIS | VIYSDGQRTSYHDEVK | GRAAGTFDS gave ND, 2.45, ND, 2.42, 3.58, 2.47. The variant GFDLNKYGIS | VIYSDGRRTFYGDSVK | GRTAGTFDS gave 0.44, 0.31, -0.24, 0.17, -0.28, -0.07.

The variant GFTLNSYGIS | VIYSDGRRTAYGDSVA | GKAGGTFDS showed 0.89, 1.16, 0.58, 2.09, 0.63, ND. For GFTLNEYGIT | VIYSDGRRTFYGDSVK | GRAAVTFDQ, the assay gave ND, ND, ND, ND, ND, ND. For GFTLNDYGIS | VIYSDGRRTFYADSVK | GRAAGTFES, the assay gave 0.83, 0.76, 0.68, 0.58, 0.63, 1.58. With GFSLNYYGIS | VIYSDGRRTFYGDSVK | GKTAGTFDS the result was 1.80, 2.18, 1.26, 2.42, 1.50, 1.32. With GFTLNSYGIS | VIYSDGRRTSYGQSVK | GRNAGTFDQ the result was ND, ND, 1.97, 1.03, ND, ND. With GFTLNSYGIS | VIYSDGRRTIYGDSVK | GRAAGTFDS the result was 1.37, 2.62, 0.61, 1.17, 1.44, 2.07. The variant GFTLNSYGIS | VIYSDGHRTFYGDSVK | GRAEGTADS showed ND, ND, ND, ND, ND, ND. With GFDLNSYGIS | VIYSDGRRTFYVDSVK | GKIAGTFDS the result was 0.68, ND, ND, ND, ND, ND.

The variant GFSLNSYGIS | VIYSDGRRTFYDDSVK | GRNAGTFDS gave 0.26, 0.14, 0.25, -0.29, 0.67, 0.27. The variant GTTINSYGIS | VIYSDGRRTFYGDSVR | GRAAGTFDW gave ND, ND, ND, ND, ND, ND. The variant GFTLNSYGIS | VIYSDGRRTFYGDRVK | GRNMGTGDH gave ND, ND, ND, ND, ND, ND. The variant GFTLNSYGIS | VIYSDGRRTFYGDSVK | GRAADRFDS gave 0.70, 1.38, ND, ND, ND, ND. For GFTLNEYGIS | VIYSDGKRTFYTDSVK | GRFAGTFDS, the assay gave 0.31, 0.31, 0.11, 0.08, 0.29, 0.54. The variant GFTLNSYGIS | VIYSDGRRTFYDDSVK | GKVAGTFDS gave 1.02, 0.88, 0.88, 0.80, 1.18, 1.11. The variant GFTLDSYGIS | VIYSDGRRTGYGDSVK | GRAAGTFDS gave ND, -0.05, -0.31, -0.22, ND, 0.28.

For reference, 3 entries of the list once more:

Variant GFSLNSYGIS | VIYSDGRRTFYDDSVK | GRNAGTFDS gave 0.26, 0.14, 0.25, -0.29, 0.67, 0.27.
Variant GFDLNSYGIS | VIYSDGRRTFYVDSVK | GKIAGTFDS gave 0.68, ND, ND, ND, ND, ND.
Variant GFSLNYYGIS | VIYSDGRRTFYGDSVK | GKTAGTFDS gave 1.80, 2.18, 1.26, 2.42, 1.50, 1.32.

Values of this round are not directly comparable with the first-round values of the same sequences. In the paper, a design with two or fewer of six values counts as a poor binder. Some sequences occur more than once in the pool; their replicates are listed entry by entry, parted by semicolons.